Results reported in patent US7741355B2, “Small-molecule modulators of TRP-p8 activity” (Dendreon Corporation, priority 2006, dated 2010).
Where two headings read alike, the source gives them in different places.

Protein sequences, listed by entry. Tags and fused reporters are not part of them.
UniProt Q7Z2W7, whole entry T58I: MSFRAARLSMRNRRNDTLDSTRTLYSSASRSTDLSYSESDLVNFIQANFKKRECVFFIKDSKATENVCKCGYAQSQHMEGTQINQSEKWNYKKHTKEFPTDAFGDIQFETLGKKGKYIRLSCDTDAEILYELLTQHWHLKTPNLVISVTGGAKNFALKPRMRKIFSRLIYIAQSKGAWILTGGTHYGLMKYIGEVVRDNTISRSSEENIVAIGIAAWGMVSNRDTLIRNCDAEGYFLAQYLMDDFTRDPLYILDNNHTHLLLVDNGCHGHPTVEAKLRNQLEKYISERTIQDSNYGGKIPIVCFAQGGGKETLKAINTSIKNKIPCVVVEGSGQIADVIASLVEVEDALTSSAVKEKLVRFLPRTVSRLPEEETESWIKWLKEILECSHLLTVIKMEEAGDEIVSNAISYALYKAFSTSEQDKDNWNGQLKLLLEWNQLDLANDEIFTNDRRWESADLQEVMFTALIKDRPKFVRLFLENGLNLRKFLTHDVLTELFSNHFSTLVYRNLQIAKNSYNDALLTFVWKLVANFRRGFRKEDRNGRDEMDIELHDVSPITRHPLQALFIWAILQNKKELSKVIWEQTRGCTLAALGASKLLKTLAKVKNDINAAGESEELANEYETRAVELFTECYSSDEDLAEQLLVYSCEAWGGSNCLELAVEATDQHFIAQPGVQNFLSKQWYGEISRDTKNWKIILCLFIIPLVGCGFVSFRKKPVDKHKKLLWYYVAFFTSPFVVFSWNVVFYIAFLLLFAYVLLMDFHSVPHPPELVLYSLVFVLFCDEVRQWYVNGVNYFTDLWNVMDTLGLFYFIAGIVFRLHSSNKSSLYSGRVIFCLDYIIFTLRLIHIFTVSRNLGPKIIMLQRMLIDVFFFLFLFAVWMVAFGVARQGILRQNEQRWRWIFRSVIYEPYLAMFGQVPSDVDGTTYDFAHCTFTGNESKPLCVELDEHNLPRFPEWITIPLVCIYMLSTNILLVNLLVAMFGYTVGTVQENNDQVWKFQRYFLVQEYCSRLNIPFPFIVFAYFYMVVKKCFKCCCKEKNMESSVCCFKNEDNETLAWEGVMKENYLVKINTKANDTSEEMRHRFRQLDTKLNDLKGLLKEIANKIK

Tests used:
[1] = molecular target: Trp-p8 (Homo sapiens, UniProt Q7Z2W7, T58I); test: ATP viability assay with CHO/Trp-p8 cells at 37° C.
Text: (§1) Human Trp-p8 transfected CHO cells (referred to herein as CHO/Trp-p8) were generated for use in experiments of the present invention. Expression of Trp-p8 polypeptide in this transfectant and the absence of any endogenous expression in the non-transfected CHO was confirmed by western blot and immunofluorescence using a Trp-p8 specific antibody (GS2.20) as well as the calcium flux assay with Icilin (1-[2-hydroxyphenyl]-4-[3-nitrophenyl]-1,2,3,6-tetrahydropyrimidine-2-one) and menthol (2-isopropyl-5-methyl-cyclohexanol). Non-transfected CHO cells were used to establish the specificity of the effects of the compounds observed with CHO/Trp-p8.
This Example discloses an ATP viability assay suitable for screening for effective Trp-p8 agonists. The ATP viability assay described herein employs CHO cells expressing an exogenous Trp-p8 cDNA. This example further establishes that Trp-p8 agonists of the present invention are effective in decreasing the viability of Trp-p8 expressing cells.
The concentration of intracellular ATP declines very rapidly when metabolically active cells undergo necrosis and/or apoptosis. The ATP concentration and consequently the relative cell viability can be measured by established methods using commercially available reagents. In the agonist screening methodology disclosed herein, a compound that specifically decreases the viability of CHO/Trp-p8 cells is referred to as an agonist.
(§2) As a primary screen for efficacy and specificity for agonists, both the non-transfected CHO and CHO/Trp-p8 cells were exposed to 1 or 10 μM of test compounds in 1% dimethylsulfoxide (DMSO) or 1% DMSO (control) in a 96-well black walled, black-bottomed, cell-culture treated plate. DMSO was the solvent for all of the compounds tested. After 24-26 hours at 37° C., the cells were lysed and ATP concentration determined via a chemiluminescence assay using a commercially available reagent kit—Cell Titer-Glo (Promega; Madison, Wis.). […] (EC50 is defined herein as the agonist concentration at which there is a 50% reduction in relative cell viability).

[2] = test system: Parent CHO; test: ATP viability assay with non-transfected (parent) CHO cells; details: read-out: Parent CHO EC50
Text: as §1, §2

[3] = Table 5, Formula I-E, CHO/Trp-p8 cells, 24-26 hours at 37° C., 50% reduction in relative cell viability

| Structure (SMILES) | EC50 [1, 3] | EC50 ([1]; read-out: CHO/Trp-p8 EC50, ATP viability assay) | EC50 [2] |
| --- | --- | --- | --- |
| CCCOc1ccc2c(c1)n(CCN)c(=O)n2C(=O)[C@@H]1C[C@H](C)CC[C@H]1C(C)C | < 20 nM | – | – |
| CC(C)[C@@H]1CC[C@@H](C)C[C@H]1C(=O)NCC(OCCN)c1ccccc1 (stereo partly shown) [Compound 30, 2-Isopropyl-5-methyl-cyclohexanecarboxylic[2-(2-amino-4-ethoxy)-2-phenyl-ethyl]-amide] | – | 10 nM | > 10000 nM |
| CC(C)[C@@H]1CC[C@@H](C)C[C@H]1C(=O)n1c(=O)n(CCN)c2cc(C(=O)NCCOCCO)ccc21 | 21 to 50 nM | – | – |
